Molecular target: T1, fluorescent labelled Bid BH3 peptide (fluorescent label (Flu- or FAM-), position not stated)
T1 construct: BH3 peptide derived from the pro-apoptotic protein Bid; The methods name two probes (Flu-Bid with Mcl-1); the two probes may differ in label and limits; also called Flu-Bid; FAM-Bid
Test: fluorescence polarisation; direct binding of the fluorescent Bid probe to recombinant protein; Ex 485 nm, Em 530 nm, room temperature; buffer of the Kd determination not told apart from the two competitive assay buffers
Settings: both partners purified

B1: recombinant Bcl-2 protein (natural protein)
chain: MAHAGRTGYDNREIVMKYIHYKLSQRGYEWDAGDDVEENRTEAPEGTESEVVHLTLRQAGDDFSRRYRRDFAEMSSQLHLTPFTARGRFATVVEELFRDGVNWGRIVAFFEFGGVMCVESVNREMSPLVDNIALWMTEYLNRHLHTWIQDNGGWDAFVELY
  Kd: 18.4 ± 1.4 nM

Source: paper PMC6033896, “Discovery of Mcl-1 inhibitors from integrated high throughput and virtual screening” (Scientific Reports, 2018)
